Our source for the inhibition values is US4568693A, “N-Naphthoylglycine derivatives” (Ayerst, McKenna & Harrison, Inc., priority 1981, dated 1986).

This test concerns the target T1, aldose reductase (Bos taurus, UniProt P16116).
T1 construct: the preparation of the enzyme from bovine lens; from tissue; host or cells: bovine lens
In words: in vitro aldose reductase inhibition (modified Hayman and Kinoshita procedure). The class given is biochemical, bovine. The source says:
In the present case the procedure of Hayman and Kinoshita is modified in that the final chromatography step is omitted in the preparation of the enzyme from bovine lens.

As to `COc1ccc2c(C(=S)N(C)CC(=O)O)cccc2c1C(F)(F)F` [Example 52, N-[[5-(trifluoromethyl)-6-methoxy-1-naphthalenyl]thioxomethyl]-N-methylglycine], the inhibition at 10 µM (read-out: % Inhibition at Different Molar Concentration (in vitro), 10^-5) amounted to 98%. Further, the inhibition at 1 µM (read-out: % Inhibition at Different Molar Concentration (in vitro), 10^-6) came out at 94%. In addition, the inhibition at 0.1 µM (read-out: % Inhibition at Different Molar Concentration (in vitro), 10^-7) worked out at 65%.
